Data on three compounds can be found in patent US20140171466A1, “PAIN MANAGEMENT IN SICKLE CELL ANEMIA” (priority 2012, published 2014).

Sequences of proteins named here, by UniProt entry; tags and fusion partners are left off.
UniProt P35372, whole entry: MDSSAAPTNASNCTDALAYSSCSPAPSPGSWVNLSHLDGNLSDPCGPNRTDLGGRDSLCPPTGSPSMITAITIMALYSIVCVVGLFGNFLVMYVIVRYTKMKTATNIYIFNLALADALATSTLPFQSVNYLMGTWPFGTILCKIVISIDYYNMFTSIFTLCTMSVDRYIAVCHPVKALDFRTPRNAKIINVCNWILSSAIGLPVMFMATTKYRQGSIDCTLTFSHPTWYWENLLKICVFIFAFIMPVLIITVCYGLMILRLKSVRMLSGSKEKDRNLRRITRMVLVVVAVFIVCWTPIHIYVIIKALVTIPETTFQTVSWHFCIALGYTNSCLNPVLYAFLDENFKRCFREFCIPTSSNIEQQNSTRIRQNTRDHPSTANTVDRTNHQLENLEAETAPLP

One assay addresses mu opioid receptor (Homo sapiens, UniProt P35372). The assay can be described thus: [35S]GTPγS binding assay μ. As to conditions: read-out: [35S]GTPγS μ EC50. Background: GTPγS resists hydrolysis and so accumulates on activated G proteins.
Another assay concerns mice. The experiment in a line: Development of analgesic tolerance, acute pain tail-flick assay. As to conditions: 1 mg/kg, after 10 days of daily dosing. For orientation: In hot-plate and tail-flick tests a longer latency is read as antinociception.

Usually EC50 stands for the concentration needed to bring the measured effect to its halfway point. Turning to `O=C1Cc2ccccc2N1C1CCN(C2C3CCCC2CCC3)CC1` (stereo not shown), the 50% effective concentration (EC50) on mu opioid receptor came to 0.03 µM.
Turning to `CC(C)C1CCC(N2CCC(N3C(=O)Cc4ccccc43)CC2)CC1` (stereo not shown), the 50% effective concentration (EC50) at mu opioid receptor came to 0.073 µM. Further, the “tail-flick latency after repeated dosing (analgesic tolerance)” value in the assay on mice is given as “maintains its tail-flick latency”.
Turning to `O=C1Cc2ccccc2N1C1CCN(C2CCCCCCC2)CC1` [Compound 3, 1-(1-cyclooctylpiperidin-4-yl)-indolin-2-one], the half-maximal effective concentration (EC50) at mu opioid receptor amounted to 0.099 µM.
